Measured values from US20120190723A1, “VIRAL MODULATORS AND PROCESSES THEREOF” (priority 2010, published 2012).

Test system: U87MG astrocytes
Assay: U87MG cell viability
Conditions: 24 hours, MTT

Compound: O=C1Nc2cc(Br)ccc2C1=C1Nc2ccccc2C1=NO
- cellular viability (0.1 μM): increase in cellular viability
- cellular viability (1.0 μM): substantially no effect on cellular viability
- cellular viability (10 μM): 56%
